Patent US8148058B2, “Method for screening allergic disease-related molecule and cell lines to be used in the method” (Tokyo University of Science Educational Foundation …, priority 2006, dated 2012)

Key:
Type in all cases: cell-based, mouse
R cell = assay: Maintenance / growth potential of R cells in culture with cytokines or RCGF
Description: (§1) Further, anti-Thy1.2 antibodies (manufactured by Pharmingen) and complement (rabbit serum, manufactured by Pel-Freeze) were respectively added to the resulting culture at 1 μg/ml and at a final concentration of 10% by volume per 1×10^7 cells/100 μl. After about 30 minutes of reaction, […] therefrom and the cultivation was continued while the RCGF was added at various concentrations. Then cell lines according to the invention were obtained.
Thereafter, respective cell lines were cultured in accordance with the dilution method over the course of three weeks and cloned. R cells were cultured in an RPMI culture medium containing 10% by volume of serum which contained 25% by volume of RCGF (or a culture medium for R cells containing 5 ng/ml of IL-3) at 37° C. in 5% CO2 atmosphere and maintained. The R cells died when the RCGF and T cells were removed from the culture environment.

N62.5 cells = assay: Proliferation of N62.5 cells, 3H-thymidine uptake; details: various concentrations; 48 hours culture, then 12 hours 3H-thymidine
Description: (§2) R cells, N62.5 cells, or RCCM cells obtained in Example 1 were placed in each well of a 96-well microplate at a seeding density of 1.5×10^4 cells/well. A culture medium in which the content of RCGF was changed was used and the sensitivities of the cells to RCGF were confirmed.
(§3) The concentrations of RCGF were set to 10 v/v %, 0.1 v/v %, and 0 v/v %. The cells were cultured in an RPMI 1640 culture medium containing 10% by volume of serum at 37° C. in 5% CO2 atmosphere for 48 hours. Thereafter, ^3H-thymidine was added to the culture medium so as to give a final concentration of 0.5 μCi/ml, and the resultant was further cultured for 12 hours and the uptake amount of ^3H during the time was measured. After the reaction, the uptake amount of ^3H-thymidine was measured using MicroBeta TRIL UX (manufactured by WALLAC). In FIGS. 1 (A) to (C), black rhombuses indicate RCCM cells, black squares indicate R cells, and black triangles indicate N62.5 cells. […]
(§4) Culture media containing various recombinant cytokines (IL-3 [manufactured by PeproTech]) and IL-4 [manufactured by PeproTech] were added to each well, and cultured at 37° C. in 5% CO2 atmosphere for 48 hours. […] Thereafter, ^3H-thymidine was added to the culture medium so as to give a final concentration of 0.5 μCi/ml, and the resultant was further cultured for 12 hours and the uptake amount of ^3H during the time was measured. […]

RCCM cells = assay: Proliferation of RCCM cells, 3H-thymidine uptake; details: various concentrations; 48 hours culture, then 12 hours 3H-thymidine
Description: as §2, §3, §4

N62.5 cell = assay: Maintenance of N62.5 cells in culture with cytokines or RCGF; details: cytokine in culture medium
Description: as §1

Molecule	sensitivity / growth potential of R cell against cytokine (R cell)	concentration at which an R cell can be maintained (R cell; cytokine in culture medium)	proliferative response of N62.5 cells to RCGF / cytokines (uptake amount of 3H-thymidine) (N62.5 cells)	proliferative response of RCCM cells to RCGF / cytokines (uptake amount of 3H-thymidine) (RCCM cells)	concentration at which an N62.5 cell can be maintained (N62.5 cell)
IL-2: cytokine	does not show sensitivity	–	–	–	–
IL-3: recombinant cytokine, manufactured by PeproTech (protein, UniProt P08700 20-152, looked up) Interleukin-3: APMTQTTPLKTSWVNCSNMIDEIITHLKQPPLPLLDFNNLNGEDQDILMENNLRRPNLEAFNRAVKSLQNASAIESILKNLLPCLPLATAAPTRHPIHIKDGDWNEFRRKLTFYLKTLENAQAQQTTLSLAIF	high growth potential	about 5 ng/ml	showed proliferative activity	no difference in growth potential	about 20 ng/ml
